The target of assay [1] is T1, Acetylcholinesterase (Anopheles gambiae, UniProt Q869C3). Kind of assay: Inhibition of recombinant Anopheles gambiae wild type AChE after 60 mins by Ellman assay. Background: DTNB colorimetry detects thiols as they appear.
The target of assay [2] is T1, Acetylcholinesterase. Kind of assay: Inhibition of recombinant Anopheles gambiae wild type AChE after 10 mins by Ellman assay.

The chains behind the UniProt entries cited, without tags or fusion partners. Where a name states a change or a piece, a line headed by the entry shows the natural chain unless it says otherwise.
UniProt Q869C3: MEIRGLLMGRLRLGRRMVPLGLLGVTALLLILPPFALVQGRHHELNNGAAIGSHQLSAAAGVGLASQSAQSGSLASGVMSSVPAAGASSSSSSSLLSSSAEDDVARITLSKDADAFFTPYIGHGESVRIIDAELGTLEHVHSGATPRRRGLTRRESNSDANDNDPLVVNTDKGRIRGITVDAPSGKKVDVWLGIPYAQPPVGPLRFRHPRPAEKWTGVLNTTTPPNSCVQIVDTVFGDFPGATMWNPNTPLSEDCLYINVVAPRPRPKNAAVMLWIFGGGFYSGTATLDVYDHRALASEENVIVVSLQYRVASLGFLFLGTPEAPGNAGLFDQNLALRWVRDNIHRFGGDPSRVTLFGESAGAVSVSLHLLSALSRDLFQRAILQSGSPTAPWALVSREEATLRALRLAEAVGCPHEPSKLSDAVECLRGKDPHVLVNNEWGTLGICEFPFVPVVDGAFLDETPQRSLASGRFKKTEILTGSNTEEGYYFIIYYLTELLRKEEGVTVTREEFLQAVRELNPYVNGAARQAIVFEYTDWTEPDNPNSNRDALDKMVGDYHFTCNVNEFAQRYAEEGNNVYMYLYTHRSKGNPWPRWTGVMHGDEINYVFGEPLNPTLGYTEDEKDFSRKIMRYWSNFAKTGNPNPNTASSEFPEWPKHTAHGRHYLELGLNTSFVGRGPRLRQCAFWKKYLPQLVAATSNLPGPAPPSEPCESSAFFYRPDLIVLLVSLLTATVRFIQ

We go through one compound from ChEMBL document CHEMBL3621126, “Difluoromethyl ketones: Potent inhibitors of wild type and carbamate-insensitive G119S mutant Anopheles gambiae acetylcholinesterase” (Bioorg Med Chem Lett, 2015).

For the compound `CC(C)(C)c1cccc(C(=O)CF)c1`, the IC50 – broadly, the concentration that gives 50% inhibition – worked out at 953 nM at Acetylcholinesterase [1] and 726 nM on Acetylcholinesterase [2].
